This experiment is described as follows: Body weight in SHAM and OVX female rats infused with further amylin agonists (Example 4). The format is in vivo, rat. To be noted: 2 μg/kg/day infusion. The text has this:
Female obesity-prone rats (n=36; CRL:CD-OP, Charles River, Wilmington, Mass.) were pre-fattened for approximately 4 months on 32% kcal/fat purified high fat diet (D12366B, Research Diets, New Brunswick, N.J.) to induce obesity in this model. Rats were then weight-matched (mean body weight 311±4 g) and subjected to either bilateral ovariectomy surgery (OVX; n=24), or sham surgery (SHAM; n=12). Rats were allowed approximately 3 weeks to recover from surgery, and after one week recovery a cohort of the OVX group (n=12) began to receive estrogen replacement (OVX+E; 2 ug β-estradiol (Sigma-Aldrich, St Louis, Mo.) in peanut oil subcutaneously every four days). […] Food intake and body weight were measured weekly. Body composition was assessed on day −1 and at termination by NMR (Echo Medical Systems, Houston, Tex.). On day 28 animals were euthanized by isoflurane overdose and cardiac blood collected.
Female obesity-prone rats were treated as described above in Example 3 to generate another set of SHAM, OVX, and OVX+E rats. Each group of rats was administered either vehicle or one of the following amylin agonists: 50 μg/kg/day of SEQ ID NO: 20; 2 μg/kg/day of SEQ ID NO: 137; or 5 μg/kg/day of SEQ ID NO: 142. […]

Take “KCNTATCVLGRLSQELHRLQTYPRTNTGSNTY [SEQ ID NO: 137]”: the “Weight loss in OVX rats relative to SHAM rats” value is listed as “either enhanced similar weight loss”.
